Test results: US10501452B2, “Lactam compound derivative and application thereof” (NHWA PHARMA. CORPORATION, priority 2015, dated 2019)

Tests used:
[1] = test system: MK-801 induced high activity in mice; experiment: MK-801 induced high activity
[2] = in vivo; conditions: both, Kunming, mouse, po
[3] = test system: conditioned avoidance response in rats; experiment: animal or person; type: in vivo; conditions: Rattus norvegicus, po, 1 h, read-out: Rat CAR ED50 (mg/kg)
Procedure: […] of SD rats, male.
Firstly, training the rats with shuttle box:
(1) The rats were allowed for adaption for five minutes;
(2) Conditioned stimulus (CS, light and noise) were started and lasted for 20 s, and at the tenth second, unconditioned stimulus (US, 1.5 mA electric shock) was performed and lasted for 10 s;
(3) Training was conducted 30 times per day for 9 days. The interval between two trainings was set randomly ranged from 20 to 30 s;
(4) Observation indicators:
The animal ran to another compartment during the conditioning stimulus was recorded as “avoidance”;
Animals ran to another compartment during the electric shock was recorded as “escape”;
Grouping of the qualified rats: the qualified rats were divided into negative control group, positive drug groups of each dosage, and compound groups of each dosage according to the principle of randomization, 8 in each group.
CAR Assay: A CAR assay was performed 1 hour after intragastric administration. The method was the same as the CAR training. The observation indicators were the number of avoidances, the number of escapes, and the number of escape failures.
Statistical Data Processing: Assay data are presented as mean±standard deviation (Mean±SD), the comparison was performed by a combination of one-way ANOVA with post-hoc LSD. The ED50 was calculated using the probit method.

Structure (SMILES)	ED50 ([1]; Mus musculus, po, read-out: MK-801 induced high activity (ED50, po, mg/kg))	improvement of MK-801 induced high activity (in words) ([1]; mice, compared with risperidone)	ED50 [2]	ED50 [3]
CN1CCc2ccc(OCCCN3CCC(c4noc5cc(F)ccc45)CC3)cc2C1=O [Compound 5, 7-(3-(4-(6-fluorobenzo[d]isoxazol-3-yl)piperidin-1-yl)propoxy)-2-methyl-3,4-dihydroisoquinolin-1(2H)-one]	0.04 mg/kg	significantly improve		
Cc1nc2n(c(=O)c1CCN1CCC(c3noc4cc(F)ccc34)CC1)CCCC2 [risperidone, reference compound]			0.97 mg/kg	0.66 mg/kg
